Target: CBL-B (Homo sapiens, UniProt Q13191)
Experiment: CBL-B TR-FRET IC50 screening (E1/E2 ubiquitination, Biotin-Ubiquitin, Anti GST-Tb donor / Streptavidin-d2 acceptor)
Details: read-out: CBL-B TR-FRET activity IC50; CBL-B 10 nM final; 11-point titration from 100 uM; binned A-F
Method: Example 625. IC50 Screening
• a) Thaw UBE1, UBCH5b, CBL-B, Biotin-Ubiquitin, CBL-B assay buffer, and ATP on ice. Aliquot each protein, CBL-B assay buffer, and ATP into single-use aliquots and stored at −80° C. immediately. • b) Transfer 100 mL test compound (10 mM stock solution, start at 100 uM, 1:3 dilution, 11 points) and then backfill 100 mL DMSO to each well designated for the “Test compound” by Echo. • c) Transfer 200 mL DMSO to each well designated for the “High Control”, “Low Control” by Echo. • d) Carefully calculate the amount of proteins needed. Prepare appropriate amounts of diluted proteins; dilute only the amount required for the assay. […] Keep the diluted reagents on ice until use. • e) Add 2.5 μl diluted CBL-B (40 nM) for the “High Control” and “Test compound”, the final concentration is 10 nM. For the “Low Control”, add 2.5 μL buffer each well. Pre-incubate for 15 min. • f) Centrifuge at 1000 rpm for 1 minute and shake plate at a speed of 600 rpm for 5 minutes. • g) Prepare the Master Mixture (E1E2) using diluted reagents: N wells×(1 μl Biotin-Ub+0.5 μl diluted UBE1+1 μl diluted UBCH5+5 μl ATP). Pre-incubation for 10 min. • h) Add master mixture to each well. Centrifuge at 1000 rpm for 1 minute and shake plate at a speed of 600 rpm for 5 minutes. • i) Incubate the reaction at 30° C. for 20 minutes. Cover the plate with a plate sealer. • j) Dilute Mab Anti GST-Tb cryptate donor (1:100) and Streptavidin-d2 acceptor (1:100) using PPI-Terbium detection buffer. Prepare only the amount required for the assay Add 5 μL diluted donor and 5 μL acceptor mixture into each well. Centrifuge at 1000 rpm for 1 minute and shake plate at a speed of 600 rpm for 5 minutes. Incubate at room temperature for one hour. • k) Read the fluorescent intensity with EnVison2104 (PerkinElmer Life Sciences). Blank value is subtracted from all other values. Tb-donor emission should be measured at 615 nM followed by dye-acceptor emission at 665 nm. […]

Sequences of proteins named here, by UniProt entry; tags and fusion partners are left off.
UniProt Q13191, whole entry: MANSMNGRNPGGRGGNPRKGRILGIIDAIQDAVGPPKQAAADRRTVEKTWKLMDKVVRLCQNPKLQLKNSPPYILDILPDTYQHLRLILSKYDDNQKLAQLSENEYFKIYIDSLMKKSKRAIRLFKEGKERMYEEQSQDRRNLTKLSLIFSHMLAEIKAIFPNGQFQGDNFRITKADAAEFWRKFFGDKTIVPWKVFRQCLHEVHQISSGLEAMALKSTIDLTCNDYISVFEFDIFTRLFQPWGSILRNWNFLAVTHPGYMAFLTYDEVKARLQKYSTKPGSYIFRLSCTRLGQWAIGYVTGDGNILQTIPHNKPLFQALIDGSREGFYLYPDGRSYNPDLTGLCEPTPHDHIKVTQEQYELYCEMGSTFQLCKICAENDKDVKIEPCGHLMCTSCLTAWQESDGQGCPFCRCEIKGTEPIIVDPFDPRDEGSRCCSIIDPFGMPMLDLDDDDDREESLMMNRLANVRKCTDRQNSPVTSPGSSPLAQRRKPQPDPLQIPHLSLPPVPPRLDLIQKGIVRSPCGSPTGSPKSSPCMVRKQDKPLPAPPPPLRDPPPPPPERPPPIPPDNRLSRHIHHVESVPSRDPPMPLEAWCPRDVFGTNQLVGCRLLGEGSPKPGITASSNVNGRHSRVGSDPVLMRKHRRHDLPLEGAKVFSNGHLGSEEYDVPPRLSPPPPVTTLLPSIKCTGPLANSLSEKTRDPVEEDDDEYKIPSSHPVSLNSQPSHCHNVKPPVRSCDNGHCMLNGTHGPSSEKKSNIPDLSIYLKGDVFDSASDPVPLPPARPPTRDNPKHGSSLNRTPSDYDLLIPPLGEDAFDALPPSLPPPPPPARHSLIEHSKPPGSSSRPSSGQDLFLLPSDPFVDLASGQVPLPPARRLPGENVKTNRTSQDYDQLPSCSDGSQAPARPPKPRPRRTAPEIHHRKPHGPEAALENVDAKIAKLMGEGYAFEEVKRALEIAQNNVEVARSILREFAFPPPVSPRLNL

| Compound | IC50 [nM] |
| --- | --- |
| Cc1c[nH]nc1CC1(c2cccc(-n3cc4c(C(F)(F)F)cc(Br)cn4c3=O)c2)COC1 | 301 to 1000 |
| Cc1c[nH]nc1[C@H](c1cccc(-n2cc3c(C(F)(F)F)cc(CN4CCC[C@H](C)C4)cn3c2=O)c1)C1CCC1 | 1000 to 3000 |
| Cc1c[nH]nc1C1(c2cccc(-n3cc4c(C(F)(F)F)cc(CN5CCC[C@H](C)C5)cn4c3=O)c2)CC2(CC2)C1 | 100 to 300 |
